Antibody variant affinities, Ab-14 light chain, assay B

Reference: Li et al. 2023, doi:10.1038/s41467-023-39022-2. File: FLAb, binding data.

All variants were tested on one target, the spike HR2 peptide PDVDLGDISGINAS (SARS-CoV-2).

Parent scFv Ab-14: VH joined to VL by three GGGGS repeats. Changes lie in the light chain CDRs alone.
VH: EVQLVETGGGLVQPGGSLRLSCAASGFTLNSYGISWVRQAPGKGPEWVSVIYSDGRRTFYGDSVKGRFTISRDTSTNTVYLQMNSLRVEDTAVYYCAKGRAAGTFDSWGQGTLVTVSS
VL: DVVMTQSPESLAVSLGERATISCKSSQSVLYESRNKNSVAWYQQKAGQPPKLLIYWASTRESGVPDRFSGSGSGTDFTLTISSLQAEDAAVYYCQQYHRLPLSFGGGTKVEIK

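The starting antibody came from a phage panning campaign against this peptide. The variants were designed computationally from a first round of random CDR variants and then made and measured. Their group label is 14L_Ctrl (Ctrl: baseline library sampled from a position-specific scoring matrix, with some repeated check sequences). Affinity was read by AlphaSeq, a pooled yeast mating assay with surface-displayed partners. The frequency of each diploid, read from paired DNA barcodes, reflects how well the two displayed proteins bind. Scores were corrected for input abundance and mapped to Kd with protein pairs of known affinity run in the same pool. Each pool was mated in six replicate cultures.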

The whole VL of each variant is written out.
Values are log10 of the apparent Kd in nM; lower means stronger binding.
"nd" means that the variant was in the library but no mating with the target was seen in that replicate; the authors take this as a sign of poor binding, and no number exists.
Three control strains display no target. For all light chain designs, 4% of the pairings with them gave a signal, with a median of 2.64 and one signal in twenty below 1.59, so weak values seen in few replicates may be background. The control count says in how many pairings with the empty strains this scFv gave a signal.
In the paper, a design with two or fewer of six values counts as a poor binder.
Of ten entries with the parent sequence, four were seen in most replicates (averages 0.34 to 2.37), three in one and three in none, so single entries are noisy.
The range of this assay differs from that of the first round, and the authors advise against merging the two.

Variant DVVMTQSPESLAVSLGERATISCKISQSVLYESRNQNSVAWYQQKAGQPPKLLIYWASTRISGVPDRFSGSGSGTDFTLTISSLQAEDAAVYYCQQYHMLPLSFGGGTKVEIK showed 1.05, 0.97, 1.05, 1.31, 1.21, 1.18 (controls 0 of 18).
Variant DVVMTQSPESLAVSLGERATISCKSSQSVTYESRNKNSVAWYQQKAGQPPKLLIYQASTRESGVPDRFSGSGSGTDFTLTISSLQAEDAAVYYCQQYHRLPLSFGGGTKVEIK showed 0.46, 0.44, 0.81, 0.09, 0.60, 0.70 (controls 0 of 18).
Variant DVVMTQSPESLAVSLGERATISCKISQSDLYESRNKNSVAWYQQKAGQPPKLLIYHASTRESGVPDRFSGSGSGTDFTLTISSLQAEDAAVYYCQQYHRLPLSFGGGTKVEIK showed 0.06, -0.07, -0.18, -0.21, -0.15, -0.09 (controls 1 of 18).
Variant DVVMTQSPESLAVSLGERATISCKLSNSVLYESRMKNSVAWYQQKAGQPPKLLIYHASTRESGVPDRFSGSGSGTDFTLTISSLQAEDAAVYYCQQYHHLPLSFGGGTKVEIK showed 0.58, 0.42, 0.19, 0.71, 0.61, 0.33 (controls 0 of 18).
Variant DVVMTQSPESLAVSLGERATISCKSSESVLYESNNFNSVAWYQQKAGQPPKLLIYWASTRESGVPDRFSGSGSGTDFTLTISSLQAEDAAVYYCQQYHRLPLSFGGGTKVEIK showed nd, 1.50, 1.02, 0.95, 1.76, nd (controls 1 of 18).
Variant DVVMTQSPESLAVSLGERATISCKYSQSVLYESTNKNSVAWYQQKAGQPPKLLIYDASTRESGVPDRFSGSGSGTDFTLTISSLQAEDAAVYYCQQYHRLPLSFGGGTKVEIK showed -0.11, -0.13, -0.01, -0.14, -0.20, -0.29 (controls 0 of 18).
Variant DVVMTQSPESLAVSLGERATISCKSKQSVLYESRNKNSVAWYQQKAGQPPKLLIYWASTRESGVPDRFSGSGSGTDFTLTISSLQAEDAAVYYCQQYMRLPLSFGGGTKVEIK showed 1.80, nd, nd, 2.79, nd, nd (controls 3 of 18).
Variant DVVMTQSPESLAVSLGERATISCKSWHSVDYTMRNKNSVAWYQQKAGQPPKLLIYDASTRESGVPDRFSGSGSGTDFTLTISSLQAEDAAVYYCQQYHRLPLSFGGGTKVEIK showed -0.14, -0.28, -0.41, -0.23, -0.31, -0.15 (controls 0 of 18).
Variant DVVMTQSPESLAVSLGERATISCKSSQSVLNESRNKNSVAWYQQKAGQPPKLLIYQASTRESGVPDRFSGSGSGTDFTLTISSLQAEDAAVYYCQQYHRLPLSFGGGTKVEIK showed 1.19, 0.63, 0.74, 1.78, 3.45, 1.15 (controls 0 of 18).
Variant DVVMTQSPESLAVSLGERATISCKSSQSVLYEDRFKNSVAWYQQKAGQPPKLLIYWALTRVSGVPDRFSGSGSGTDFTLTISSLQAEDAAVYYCQQYHRLPLSFGGGTKVEIK showed nd, nd, nd, nd, nd, nd (controls 1 of 18).
Variant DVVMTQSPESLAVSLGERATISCKSSQSGLYESCNKNSVAWYQQKAGQPPKLLIYWASTRESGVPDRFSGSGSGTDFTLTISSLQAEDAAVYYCQQYHRLPLSFGGGTKVEIK showed nd, nd, nd, nd, nd, nd (controls 2 of 18).
Variant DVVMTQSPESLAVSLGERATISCKNVQSVLYESRNKNAVAWYQQKAGQPPKLLIYWASTRESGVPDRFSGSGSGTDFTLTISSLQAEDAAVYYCQQYHRLPLSFGGGTKVEIK showed nd, 1.35, nd, nd, 1.33, nd (controls 0 of 18).
Variant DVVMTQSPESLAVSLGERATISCKSSQSMLYESRNKNVVAWYQQKAGQPPKLLIYWASTRESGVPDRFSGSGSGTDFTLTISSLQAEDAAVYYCQQYHRLPCSFGGGTKVEIK showed nd, nd, nd, nd, nd, nd (controls 0 of 18).
Variant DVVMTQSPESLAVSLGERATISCKSSQSHLYESRNKNSVAWYQQKAGQPPKLLIYWASTRESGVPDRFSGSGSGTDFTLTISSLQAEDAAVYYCQQYHFLPLSFGGGTKVEIK showed 1.84, 1.54, 1.54, 2.57, 2.21, 2.16 (controls 1 of 18).

Repeated from above, the 2 best binders with a signal in all replicates:

Variant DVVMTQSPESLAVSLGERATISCKSWHSVDYTMRNKNSVAWYQQKAGQPPKLLIYDASTRESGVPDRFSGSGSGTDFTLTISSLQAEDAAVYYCQQYHRLPLSFGGGTKVEIK gave -0.14, -0.28, -0.41, -0.23, -0.31, -0.15 (controls 0 of 18).
Variant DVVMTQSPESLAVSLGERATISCKYSQSVLYESTNKNSVAWYQQKAGQPPKLLIYDASTRESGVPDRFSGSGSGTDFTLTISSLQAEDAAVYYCQQYHRLPLSFGGGTKVEIK gave -0.11, -0.13, -0.01, -0.14, -0.20, -0.29 (controls 0 of 18).